The text below walks through data of US8809618B2, “Transgenic mouse for screening and for studies of the pharmacodynamics and pharmacokinetics of ligands acting on the oestrogen receptor and its intracellular receptors, and method for the preparation thereof” (T.O.P. (Transgenic Operative Products) S.R.L., priority 2000, dated 2014).

The series relates to oestrogen receptors. In words: Agonistic/antagonistic action of ER ligands: luciferase activity in tissues of line 2 ERE-luciferase transgenic mice. The conditions noted are these: line 2 mice, s.c. 250 μg/kg, 6 hours. As to the method:
To verify the expression of the transgene in the different tissues and its inducibility by oestrogens, 4 independent experiments were carried out on 8 female individuals of each line (4 heterozygotic and 4 homozygotic). For each experiment, two female individuals were ovariectomised. […] The suspension was frozen and thawed three times, and centrifuged for 30 minutes at 13,000 g; the supernatant was collected and equal quantities of protein, measured by the colorimetric method of Bradford, were subjected to enzymatic testing to reveal the activity of the enzyme luciferase. The method for detection of the activity of the reporter was carried out with a kit by the procedure recommended by the producer (Sigma), mixing ca. 20 μg of protein extract with the luciferin substrate in the presence of 0.5 mM ATP and 30 mM DTT and measuring the […] emitted using a luminometer (Lumat BL 9500, Berthold). […] Luciferase enzymatic activity was evaluated and plotted in the graph. […]

In the case of 4-hydroxytamoxifen, where the note is “liver”, the “increase in level of luciferase in the liver (fold induction, treated/control)” value came to 12 fold. For the setting “second tissue not printed (brain, bone)”, the “increase in level of luciferase, second tissue (fold induction, treated/control)” value worked out at 7 fold.
